Results published in PMC3677530 (Analytical biochemistry, 2013).

By UniProt entry, the sequences of proteins in these tests, tags left out.
UniProt P21554, whole entry: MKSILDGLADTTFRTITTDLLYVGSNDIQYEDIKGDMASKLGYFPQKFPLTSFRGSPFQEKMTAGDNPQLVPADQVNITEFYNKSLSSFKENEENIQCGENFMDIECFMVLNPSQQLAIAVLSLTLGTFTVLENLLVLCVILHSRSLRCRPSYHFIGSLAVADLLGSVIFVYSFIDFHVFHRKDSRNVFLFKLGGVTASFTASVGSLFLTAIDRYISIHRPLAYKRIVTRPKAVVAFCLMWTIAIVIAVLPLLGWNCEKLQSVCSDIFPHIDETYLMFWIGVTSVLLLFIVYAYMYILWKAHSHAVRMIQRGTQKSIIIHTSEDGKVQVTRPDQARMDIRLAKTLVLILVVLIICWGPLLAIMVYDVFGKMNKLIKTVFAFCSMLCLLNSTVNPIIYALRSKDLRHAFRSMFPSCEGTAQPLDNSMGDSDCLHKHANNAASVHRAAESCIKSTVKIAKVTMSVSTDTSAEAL
UniProt P34972, whole entry: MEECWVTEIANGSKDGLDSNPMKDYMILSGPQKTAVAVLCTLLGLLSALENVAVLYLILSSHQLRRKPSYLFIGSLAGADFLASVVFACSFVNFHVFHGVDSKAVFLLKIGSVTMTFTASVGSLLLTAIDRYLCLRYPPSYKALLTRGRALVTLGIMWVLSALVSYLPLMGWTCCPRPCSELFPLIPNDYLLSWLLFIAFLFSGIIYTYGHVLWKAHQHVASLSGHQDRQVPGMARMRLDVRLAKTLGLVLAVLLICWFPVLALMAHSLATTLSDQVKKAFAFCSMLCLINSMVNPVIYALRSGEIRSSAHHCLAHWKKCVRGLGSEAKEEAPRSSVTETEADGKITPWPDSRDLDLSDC

Columns and labels:
[1] = biological target: human cannabinoid CB1 receptor (Homo sapiens, UniProt P21554)
[2] = biological target: human cannabinoid CB2 receptor (Homo sapiens, UniProt P34972); conditions: 2 nM [3H]-CP55,940, CHO-CB2

Row | Structure (SMILES) | inhibition of internalization (CB1) [1] | inhibition of internalization (CB2) [2]
1 | Cc1c(C(=O)NN2CCOCC2)nn(-c2ccc(Cl)cc2Cl)c1-c1ccc(I)cc1 [AM281] | 32.1% | 
2 | CCNC1(C(N)=O)CCN(c2ncnc3c2nc(-c2ccccc2Cl)n3-c2ccc(Cl)cc2)CC1 [Otenabant] |  | 37.6%
